The source of these data is patent US20130338190A1, “PHARMACEUTICALLY ACCEPTABLE SALT OF (E)-N-[4-[[3-CHLORO-4-(2-PYRIDYLMETHOXY)PHENYL]AMINO]-3-CYANO-7-ETHOXY-6-QUINOLYL]-3-[(2R)-1-METHYLPYRROLIDIN-2-YL]PROP-2-ENAMIDE, PREPARATION METHOD THEREOF, AND MEDICAL USE THEREOF” (priority 2011, published 2013).

Protein sequences, listed by entry. Tags and fused reporters are not part of them. Residues count along the entry.
UniProt P00533, 25-1210: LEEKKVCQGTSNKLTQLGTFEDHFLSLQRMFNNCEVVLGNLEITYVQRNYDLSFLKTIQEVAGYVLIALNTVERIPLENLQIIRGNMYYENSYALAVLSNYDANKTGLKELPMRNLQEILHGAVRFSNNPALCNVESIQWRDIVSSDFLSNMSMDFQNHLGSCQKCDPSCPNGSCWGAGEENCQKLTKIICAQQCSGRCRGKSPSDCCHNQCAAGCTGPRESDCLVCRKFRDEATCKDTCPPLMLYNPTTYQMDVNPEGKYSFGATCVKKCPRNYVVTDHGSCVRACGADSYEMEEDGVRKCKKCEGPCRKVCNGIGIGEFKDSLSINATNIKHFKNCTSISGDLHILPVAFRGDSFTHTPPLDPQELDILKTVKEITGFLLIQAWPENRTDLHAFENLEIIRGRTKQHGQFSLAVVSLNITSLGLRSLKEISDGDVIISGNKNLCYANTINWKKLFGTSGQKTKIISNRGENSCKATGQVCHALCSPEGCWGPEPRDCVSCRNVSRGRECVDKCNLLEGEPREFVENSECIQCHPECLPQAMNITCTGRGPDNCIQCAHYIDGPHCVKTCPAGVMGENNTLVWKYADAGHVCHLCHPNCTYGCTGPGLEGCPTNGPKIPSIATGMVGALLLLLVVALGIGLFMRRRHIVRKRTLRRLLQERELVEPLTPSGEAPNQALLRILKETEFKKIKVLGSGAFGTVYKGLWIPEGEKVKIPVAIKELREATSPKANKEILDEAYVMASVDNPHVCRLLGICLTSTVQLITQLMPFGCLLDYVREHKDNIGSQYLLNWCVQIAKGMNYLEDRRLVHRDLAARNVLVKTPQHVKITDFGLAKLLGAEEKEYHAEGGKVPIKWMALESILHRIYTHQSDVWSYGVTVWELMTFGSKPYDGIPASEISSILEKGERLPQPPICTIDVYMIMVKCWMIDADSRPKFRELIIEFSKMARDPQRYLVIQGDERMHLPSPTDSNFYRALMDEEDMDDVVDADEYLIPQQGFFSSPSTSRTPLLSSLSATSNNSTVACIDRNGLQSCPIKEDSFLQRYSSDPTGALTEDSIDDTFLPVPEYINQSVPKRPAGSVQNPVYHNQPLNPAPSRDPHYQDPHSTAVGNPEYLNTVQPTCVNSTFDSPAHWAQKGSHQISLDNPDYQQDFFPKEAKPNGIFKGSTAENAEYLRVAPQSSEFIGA

SMILES strings stand for the structures. Where a name gives a salt, the structure may show the parent alone.

The target of one test is EGFR kinase (Homo sapiens, UniProt P00533). Description: EGFR kinase activity assay (time-resolved fluorescence). It counts as biochemical. Conditions: human-derived recombinant EGFR kinase, 20 μM ATP, 25° C., 45 minutes; read-out: IC50 (EGFR/BIO). On the procedure:
The in vitro EGFR kinase activity was tested by the following assay.

In test [1] the test system is human epidermoid carcinoma A431 cells, which have high expression of EGFR. Briefly: EGFR cell proliferation inhibition assay (SRB, 72 hours). It counts as cell-based. As for the experimental part: The activity is represented by the IC50 value. The general procedures of the assay were as follows: the cancer cells A431 highly expressing EGFR were chosen and seeded in a 96-well cell culture plate at a suitable density (e.g., 5000 cells/mL medium). The cells were then incubated in a carbon dioxide incubator until they reached 85% confluence. Then, the cell culture medium was replaced by fresh medium containing the test compounds with serial dilutions (general 6 to 7 concentrations). The cells were put back in the incubator and cultured continuously for 72 hours. The activity of the test compounds for inhibiting the cell proliferation was determined by using a Sulforhodamine B (SRB) method. IC50 values were calculated by the rate of inhibition at various concentrations of the test compounds.

In the case of `CCOc1cc2ncc(C#N)c(Nc3ccc(OCc4ccccn4)c(Cl)c3)c2cc1NC(=O)/C=C/[C@H]1CCCN1C.O=C(O)/C=C\C(=O)O` [Example 1, (E)-N-[4-[[3-chloro-4-(2-pyridylmethoxy)phenyl]amino]-3-cyano-7-ethoxy-6-quinolyl]-3-[(2R)-1-methylpyrrolidin-2-yl]prop-2-enamide maleate], the IC50 at EGFR kinase was found to be 25 nM.

Molecule `CCOc1cc2ncc(C#N)c(Nc3ccc(OCc4ccccn4)c(Cl)c3)c2cc1NC(=O)/C=C/[C@H]1CCCN1C` [Example 1f, (E)-N-[4-[[3-chloro-4-(2-pyridylmethoxy)phenyl]amino]-3-cyano-7-ethoxy-6-quinolyl]-3-[(2R)-1-methylpyrrolidin-2-yl]prop-2-enamide] had an IC50 in test [1] of 45 nM.

Consider `CCOc1cc2ncc(C#N)c(Nc3ccc(OCc4ccccn4)c(Cl)c3)c2cc1NC(=O)/C=C/[C@H]1CCCN1C.O=C(O)/C=C\C(=O)O` [Example 2, (E)-N-[4-[[3-chloro-4-(2-pyridylmethoxy)phenyl]amino]-3-cyano-7-ethoxy-6-quinolyl]-3-[(2R)-1-methylpyrrolidin-2-yl]prop-2-enamide dimaleate], for which, on EGFR kinase, the IC50 was 9 nM.

As for `CCOc1cc2ncc(C#N)c(Nc3ccc(OCc4ccccn4)c(Cl)c3)c2cc1NC(=O)/C=C/[C@H]1CCCN1C.O=C(O)C[C@H](O)C(=O)O` [Example 3, (E)-N-[4-[[3-chloro-4-(2-pyridylmethoxy)phenyl]amino]-3-cyano-7-ethoxy-6-quinolyl]-3-[(2R)-1-methylpyrrolidin-2-yl]prop-2-enamide L-malate], the IC50 on EGFR kinase was found to be 31 nM.

For the molecule `CCOc1cc2ncc(C#N)c(Nc3ccc(OCc4ccccn4)c(Cl)c3)c2cc1NC(=O)/C=C/[C@H]1CCCN1C.Cc1ccc(S(=O)(=O)O)cc1` [Example 7, (E)-N-[4-[[3-chloro-4-(2-pyridylmethoxy)phenyl]amino]-3-cyano-7-ethoxy-6-quinolyl]-3-[(2R)-1-methylpyrrolidin-2-yl]prop-2-enamide p-toluenesulfonate], at EGFR kinase, the IC50 turned out to be 26 nM.

With `CCOc1cc2ncc(C#N)c(Nc3ccc(OCc4ccccn4)c(Cl)c3)c2cc1NC(=O)/C=C/[C@H]1CCCN1C.O=C(O)CCC(=O)O` [Example 8, (E)-N-[4-[[3-chloro-4-(2-pyridylmethoxy)phenyl]amino]-3-cyano-7-ethoxy-6-quinolyl]-3-[(2R)-1-methylpyrrolidin-2-yl]prop-2-enamide succinate], the IC50 at EGFR kinase was 28 nM.

Turning to `CCOc1cc2ncc(C#N)c(Nc3ccc(OCc4ccccn4)c(Cl)c3)c2cc1NC(=O)/C=C/[C@H]1CCCN1C` [Example 9, (E)-N-[4-[[3-chloro-4-(2-pyridylmethoxy)phenyl]amino]-3-cyano-7-ethoxy-6-quinolyl]-3-[(2R)-1-methylpyrrolidin-2-yl]prop-2-enamide dihydrochloride], the IC50 at EGFR kinase came to 35 nM.
